The source of these data is patent publication US20090023666A1, “Modulators of Hypoxia Inducible Factor-1 and Related Uses” (priority 2006, published 2009).

One assay concerns Caki-1 (CAKI). The settings on record: read-out: APA (Caki-1) IC50.
Another assay has as its system A549. The settings on record: read-out: APA (A549) IC50.
Assay [1] concerns the target Na-K-ATPase. As to the kind of experiment: Na-K-ATPase enzyme assay (inorganic phosphate liberated from ATP), pig brain. The settings on record: read-out: ATPase Inh, IC50 Pig brain.
Assay [2] has as its target Na-K-ATPase (Canis lupus familiaris, UniProt P50997). As to the kind of experiment: Na-K-ATPase enzyme assay (inorganic phosphate liberated from ATP), dog kidney. The settings on record: read-out: ATPase Inh, IC50 Dog kidney.
Assay [3] relates to 5-aminoimidazole-4-carbox-amide riboside (AICAR). As to the kind of experiment: AICAR-RA reporter assay. The settings on record: read-out: AICAR-RA ED50, indicative of the inhibition of glucose metabolism. Background: In a reporter assay the amount or activity of a reporter protein is the signal.

What is called IC50 is the concentration that inhibits the measured activity by half. Take `CC(C)NC(=O)O[C@@H]1C=C2CCC3C(CC[C@]4(C)[C@@H](c5ccc(=O)oc5)CC[C@]34O)[C@@]2(C)CC1` (stereo partly drawn): the IC50 with Caki-1 (CAKI) worked out at 197 nM; with A549 it was 29 nM; on Na-K-ATPase [1], 273 nM; on Na-K-ATPase [2], 279 nM. Further, the EC50 in assay [3] came out at 112 nM.

With `CSCC(=O)O[C@@H]1C=C2CC[C@@H]3[C@H](CC[C@]4(C)[C@@H](c5ccc(=O)oc5)CC[C@]34O)[C@@]2(C)CC1`, the IC50 was 202 nM in the assay with Caki-1 (CAKI), 14 nM in the assay on A549, 312 nM at Na-K-ATPase [1] and 180 nM on Na-K-ATPase [2]. For the same molecule, the EC50 in assay [3] turned out to be 112 nM.

As for `COCC(=O)O[C@@H]1C=C2CC[C@@H]3[C@H](CC[C@]4(C)[C@@H](c5ccc(=O)oc5)CC[C@]34O)[C@@]2(C)CC1`, the IC50 in the assay with Caki-1 (CAKI) was determined as 141 nM; with A549 it was 11 nM; on Na-K-ATPase [1], 250 nM; on Na-K-ATPase [2], 220 nM. The EC50 in assay [3] is 111 nM.
